Earlier results in US20050032827A1, “Sigma ligands for neuronal regeneration and functional recovery” (priority 2003, published 2005).

Chains of the proteins cited; added tags and fusions are not shown.
UniProt Q99720, whole entry: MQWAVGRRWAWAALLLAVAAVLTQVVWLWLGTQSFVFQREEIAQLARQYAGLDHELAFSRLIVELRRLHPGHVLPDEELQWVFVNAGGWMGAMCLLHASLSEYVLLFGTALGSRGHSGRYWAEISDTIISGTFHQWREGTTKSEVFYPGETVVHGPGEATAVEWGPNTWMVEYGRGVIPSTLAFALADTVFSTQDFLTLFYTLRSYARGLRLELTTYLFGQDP

Target: sigma-1 site (Homo sapiens, UniProt Q99720)
Conditions: (+) isomers of benzomorphan opiates; Hellewell and Bowen (1990); cited from earlier work

## (+)SKF 10,047
  affinity for the sigma-1 site compared to the sigma-2 site: nearly two orders of magnitude higher affinity for the sigma-1 site
